Results as given in US20240051952A1, “HMOX1 INDUCERS” (Mitobridge Inc., priority 2019, published 2024).
In brackets after ≈: the same amount, converted by molar mass.

Assay: Kinetic solubility
Type: physicochemical
Details: DPBS pH 7.4, 25° C., 16 h, 200 μM test compound
Experimental: 10 μL of 10 mM DMSO stock solution were aliquotted to 490 μL of DMSO solution and separately 490 μL of Dulbecco's phosphate buffer saline, DPBS, pH 7.4 solution in 1.2 mL 96-well plates in duplicate. Final concentration was 200 μM of the test compound. Samples were incubated at 25° C. with shaking at 200 rpm for 16 h. Samples were centrifuged at 3500 rpm for 20 min at 25° C., and supernatant was submitted for HPLC analysis.
Kinetic solubility was measured using the following equation: […]

SMILES | Solubility
COCCNC(=O)c1ccc2c(c1)nc(Nc1nc3ccc(OC(F)(F)F)cc3o1)n2CC1CCOC1 (centres unmarked) [Example 88, N-(2-methoxyethyl)-1-((tetrahydrofuran-3-yl)methyl)-2-((6-(trifluoromethoxy)benzo[d]oxazol-2-yl)amino)-1H-benzo[d]imidazole-5-carboxamide] | 3.9 µM (≈ 2.03 µg/mL)
CCn1c(Nc2nc3ccc(OC(F)(F)F)cc3o2)nc2cc(C(=O)NCCOC)ccc21 [Example 85, 1-ethyl-N-(2-methoxyethyl)-2-((6-(trifluoromethoxy)benzo[d]oxazol-2-yl)amino)-1H-benzo[d]imidazole-5-carboxamide] | 3.3 µM (≈ 1.53 µg/mL)
